Laboratory results taken from ChEMBL document CHEMBL1144571, “ABP688, a novel selective and high affinity ligand for the labeling of mGlu5 receptors: identification, in vitro pharmacology, pharmacokinetic and biodistribution studies” (Bioorg Med Chem, 2007).

Sequences of proteins named here, by UniProt entry; tags and fusion partners are left off.
UniProt P41594, whole entry: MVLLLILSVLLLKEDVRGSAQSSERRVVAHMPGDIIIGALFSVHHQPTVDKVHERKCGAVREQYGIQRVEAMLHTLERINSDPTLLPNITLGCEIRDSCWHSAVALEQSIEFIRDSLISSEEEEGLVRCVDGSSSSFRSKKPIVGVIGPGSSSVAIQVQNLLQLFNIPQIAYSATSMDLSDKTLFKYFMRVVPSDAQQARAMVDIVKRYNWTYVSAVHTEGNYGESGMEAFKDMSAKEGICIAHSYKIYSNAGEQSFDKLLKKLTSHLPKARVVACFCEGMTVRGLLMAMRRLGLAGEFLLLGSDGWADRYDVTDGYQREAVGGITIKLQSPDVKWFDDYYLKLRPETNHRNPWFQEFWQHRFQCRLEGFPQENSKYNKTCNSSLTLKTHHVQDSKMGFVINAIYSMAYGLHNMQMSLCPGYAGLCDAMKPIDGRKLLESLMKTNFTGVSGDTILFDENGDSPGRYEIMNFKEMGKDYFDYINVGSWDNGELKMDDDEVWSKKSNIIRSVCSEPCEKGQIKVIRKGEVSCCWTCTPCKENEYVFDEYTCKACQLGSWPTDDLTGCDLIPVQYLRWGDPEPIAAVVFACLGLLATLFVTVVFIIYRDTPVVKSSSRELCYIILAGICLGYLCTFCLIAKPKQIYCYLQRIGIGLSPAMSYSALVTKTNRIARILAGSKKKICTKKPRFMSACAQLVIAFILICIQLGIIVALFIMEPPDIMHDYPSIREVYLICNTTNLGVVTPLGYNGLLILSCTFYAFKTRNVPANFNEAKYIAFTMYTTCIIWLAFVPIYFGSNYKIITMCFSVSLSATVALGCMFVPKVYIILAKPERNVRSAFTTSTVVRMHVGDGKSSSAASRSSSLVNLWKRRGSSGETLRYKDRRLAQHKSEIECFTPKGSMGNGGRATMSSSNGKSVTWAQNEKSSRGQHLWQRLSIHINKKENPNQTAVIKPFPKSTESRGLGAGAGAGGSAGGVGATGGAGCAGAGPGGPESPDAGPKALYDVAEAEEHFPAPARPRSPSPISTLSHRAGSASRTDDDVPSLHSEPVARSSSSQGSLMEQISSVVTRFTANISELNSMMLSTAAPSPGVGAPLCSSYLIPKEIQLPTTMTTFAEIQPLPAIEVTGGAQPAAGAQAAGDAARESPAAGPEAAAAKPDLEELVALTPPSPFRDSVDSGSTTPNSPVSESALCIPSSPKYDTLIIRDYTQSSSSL
UniProt P31424, whole entry: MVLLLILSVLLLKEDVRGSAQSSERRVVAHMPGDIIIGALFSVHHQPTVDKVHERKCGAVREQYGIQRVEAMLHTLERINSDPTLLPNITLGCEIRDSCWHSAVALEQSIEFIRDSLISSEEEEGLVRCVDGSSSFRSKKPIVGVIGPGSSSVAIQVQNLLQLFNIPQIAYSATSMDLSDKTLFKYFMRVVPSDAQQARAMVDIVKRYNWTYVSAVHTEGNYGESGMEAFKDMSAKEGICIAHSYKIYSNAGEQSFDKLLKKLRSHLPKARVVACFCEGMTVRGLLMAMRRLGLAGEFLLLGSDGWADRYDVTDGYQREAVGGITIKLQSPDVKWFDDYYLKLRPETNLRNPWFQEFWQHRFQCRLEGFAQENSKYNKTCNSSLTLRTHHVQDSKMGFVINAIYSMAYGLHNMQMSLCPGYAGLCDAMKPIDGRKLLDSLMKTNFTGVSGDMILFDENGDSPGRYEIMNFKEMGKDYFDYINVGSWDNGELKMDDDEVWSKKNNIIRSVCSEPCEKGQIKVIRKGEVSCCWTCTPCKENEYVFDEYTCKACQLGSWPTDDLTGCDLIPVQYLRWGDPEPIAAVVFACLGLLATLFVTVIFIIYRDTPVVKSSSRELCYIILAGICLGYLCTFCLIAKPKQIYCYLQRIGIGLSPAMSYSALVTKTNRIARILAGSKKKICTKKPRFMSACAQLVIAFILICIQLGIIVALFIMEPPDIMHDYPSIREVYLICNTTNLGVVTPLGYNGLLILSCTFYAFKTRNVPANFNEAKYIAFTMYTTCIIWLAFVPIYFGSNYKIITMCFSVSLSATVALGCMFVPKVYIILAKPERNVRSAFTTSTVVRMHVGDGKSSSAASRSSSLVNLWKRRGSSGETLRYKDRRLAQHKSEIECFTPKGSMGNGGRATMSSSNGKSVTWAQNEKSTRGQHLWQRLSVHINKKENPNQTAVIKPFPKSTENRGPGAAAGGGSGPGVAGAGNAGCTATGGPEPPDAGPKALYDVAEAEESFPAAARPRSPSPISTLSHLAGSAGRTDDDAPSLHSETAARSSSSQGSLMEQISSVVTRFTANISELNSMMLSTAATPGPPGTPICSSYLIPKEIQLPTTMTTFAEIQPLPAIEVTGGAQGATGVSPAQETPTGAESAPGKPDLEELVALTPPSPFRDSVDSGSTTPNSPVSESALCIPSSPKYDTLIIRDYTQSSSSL

How the values were obtained:
[1] = Ratio of drug level in blood to plasma in rat; format: ADME, organism-based
[2] = Ratio of drug level in blood to plasma in human; format: ADME, organism-based
Homo sapiens = organism: Homo sapiens; test: Protein binding in human plasma as percentage unbound
[3] = biological target: Metabotropic glutamate receptor 5 (Homo sapiens, UniProt P41594); test: Displacement of [3H]ABP688 from human mGluR5 receptor expressed in L (tk-) cells; format: cell-based
[4] = biological target: Metabotropic glutamate receptor 5 (Rattus norvegicus, UniProt P31424); test: Displacement of [3H]ABP688 from mGluR5 in rat brain membrane; format: cell membranes

Row | blood plasma ratio [1] | blood plasma ratio [2] | fraction unbound (Homo sapiens) | Ki [3] | Ki [4] | SMILES
1 | 0.74 | 0.57 | 0.044 |  |  | [3H]C([3H])([3H])O/N=C1/C=C(C#Cc2cccc(C)n2)CCC1
2 |  |  |  | 20 nM | 19 nM | Cc1cccc(C#Cc2ccccc2)n1
